{
  "sequences": {"note": "By UniProt entry, the sequences of proteins in these tests, tags left out.", "UniProt P23977, whole entry, looked up": "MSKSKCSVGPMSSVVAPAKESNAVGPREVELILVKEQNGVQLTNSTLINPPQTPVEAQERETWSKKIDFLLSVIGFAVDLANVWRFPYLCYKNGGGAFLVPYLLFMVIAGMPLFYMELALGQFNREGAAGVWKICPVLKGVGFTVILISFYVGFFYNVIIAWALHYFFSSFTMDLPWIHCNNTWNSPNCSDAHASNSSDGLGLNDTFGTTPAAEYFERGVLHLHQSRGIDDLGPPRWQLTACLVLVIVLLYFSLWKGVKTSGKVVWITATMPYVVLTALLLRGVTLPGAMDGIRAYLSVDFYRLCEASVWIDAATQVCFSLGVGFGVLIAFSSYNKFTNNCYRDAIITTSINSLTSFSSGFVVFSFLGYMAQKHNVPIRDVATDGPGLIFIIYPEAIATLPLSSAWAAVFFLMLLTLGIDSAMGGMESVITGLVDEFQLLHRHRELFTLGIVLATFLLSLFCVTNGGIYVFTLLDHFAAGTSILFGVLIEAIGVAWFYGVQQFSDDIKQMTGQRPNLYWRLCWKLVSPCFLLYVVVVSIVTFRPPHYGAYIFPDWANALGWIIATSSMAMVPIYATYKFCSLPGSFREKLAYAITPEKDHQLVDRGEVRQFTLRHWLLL"},
  "source": "ChEMBL document CHEMBL1130256",
  "about": "“1-[1-2-Benzo[b]thiopheneyl)cyclohexyl]piperidine hydrochloride (BTCP) yields two active primary metabolites in vitro: synthesis, identification from rat liver microsome extracts, and affinity for the neuronal dopamine transporter” (J Med Chem, 1997)",
  "key": {"[1]": {"assay": "Amount of metabolites in the microsomal medium after 90 min incubation of BTCP (500 uM)", "conditions": "microsomes, 1.5 h"}, "[2]": {"biological_target": "Sodium-dependent dopamine transporter (Rattus norvegicus, UniProt P23977)", "assay": "Inhibitory activity of compound against [3H]BTCP binding to neuronal dopamine transporter of rat striatal membrane"}},
  "data": [
    {"smiles": "O[C@H]1CC[C@](c2cc3ccccc3s2)(N2CCCCC2)CC1", "values": [
      {"measurement": "Amount", "setting": "[1]", "result": 765, "unit": "pM"},
      {"measurement": "IC50", "setting": "[2]", "result": 113, "unit": "nM"}
    ]},
    {"smiles": "O[C@H]1CC[C@@](c2cc3ccccc3s2)(N2CCCCC2)CC1", "values": [
      {"measurement": "Amount", "setting": "[1]", "result": 91, "unit": "pM"},
      {"measurement": "IC50", "setting": "[2]", "result": 53.4, "unit": "nM"}
    ]}
  ]
}
